From publication PMC6467762 (ACS infectious diseases, 2018)
Positions count from the first letter of the chain named.

Legend:
PfDHODH C276F = target: T1, PfDHODH C276F (Plasmodium falciparum, UniProt Q08210, C276F); assay: Recombinant PfDHODH inhibition, direct assay; type: biochemical
T1 sequence (Q08210 158-569 C276F): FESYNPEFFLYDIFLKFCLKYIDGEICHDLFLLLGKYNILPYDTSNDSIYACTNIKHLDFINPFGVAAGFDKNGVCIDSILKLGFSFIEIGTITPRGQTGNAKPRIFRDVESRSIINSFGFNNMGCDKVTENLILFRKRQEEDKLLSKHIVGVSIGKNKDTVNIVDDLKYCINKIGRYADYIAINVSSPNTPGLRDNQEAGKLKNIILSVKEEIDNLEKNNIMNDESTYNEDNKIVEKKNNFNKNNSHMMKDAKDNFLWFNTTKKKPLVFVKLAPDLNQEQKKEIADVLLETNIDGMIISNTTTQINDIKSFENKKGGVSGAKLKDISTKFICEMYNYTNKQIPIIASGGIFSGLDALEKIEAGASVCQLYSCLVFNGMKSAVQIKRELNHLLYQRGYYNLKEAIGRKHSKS

PfDHODH WT = target: T2, PfDHODH WT (Plasmodium falciparum, UniProt Q08210); assay: Recombinant PfDHODH inhibition, direct assay; type: biochemical
T2 sequence (Q08210 158-569): T1 sequence (Q08210 158-569 C276F) with F119C

Cc1cc(Nc2ccc3ccccc3c2)n2ncnc2n1 [DSM1, 5-methyl-N-(naphthalen-2-yl)-[1,2,4]triazolo[1,5-a]pyrimidin-7-amine]
IC50 (PfDHODH C276F): 67 ± 20 nM | IC50 (PfDHODH WT): 37 ± 5 nM
